According to publication PMC6398935 (The Biochemical journal, 2016):

Biological target: T1, factor H binding protein (fHbp) variant 1.1, wild type (Neisseria meningitidis serogroup B …, UniProt Q9JXV4)
T1 construct: source: E. coli BL21(DE3), purified
Experiment: SPR
Settings: both partners purified

B1: murine anti-fHbp monoclonal antibody JAR5 (IgG2b) (antibody, V domains shown)
VH: QVQMQQPGAELVKPGASVKLSCKASGYTFISYWMHWVKQRPGRGLEWIGRIAPDTGIIYYNEKFKNKATLTVDTPSSTAYMQLNSLTSEDSAVYYCARYLKYDGSTYRFDYWGQGTTLTVSS
VL: DIVMTQAAPSVPVTPGESVSISCRSSKSLLHSNGNTYLFWFLQRPGQSPQLLIYRMSNLASGVPDRFSGSGSGTSFTLRISRVEAEDVGVYYCMQHLEYPYTFGGGTKLEIK
- Kd: 0.19 nM
